Measurements: patent US7510845B2, “Assay employing G protein-coupled receptor expressed in dorsal root ganglia” (California Institute of Technology, priority 2000, dated 2009)

Molecular target: T1, MRGA1 (Mus musculus, UniProt Q91WW5)
T1 construct: cDNAs encoding eight full-length variants of Mrg receptors (mMrgA1-8) are provided; expressed in transfected cells; host or cells: HEK293-Galpha15 (A1) or HEK293 lacking Galpha15 (A4), transient transfection with FuGENE 6
T1 sequence (Q91WW5 1-304): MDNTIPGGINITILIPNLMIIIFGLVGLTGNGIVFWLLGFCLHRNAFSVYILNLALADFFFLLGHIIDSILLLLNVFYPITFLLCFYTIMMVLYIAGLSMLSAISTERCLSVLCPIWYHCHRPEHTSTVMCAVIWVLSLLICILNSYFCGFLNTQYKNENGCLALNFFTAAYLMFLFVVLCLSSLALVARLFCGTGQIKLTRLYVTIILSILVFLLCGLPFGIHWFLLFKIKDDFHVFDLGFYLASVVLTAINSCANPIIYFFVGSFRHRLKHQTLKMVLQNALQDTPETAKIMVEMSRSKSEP
Test: Intracellular Ca2+ release assay (Fura-2), MRGA1-GFP in HEK-Gα15 cells
Format: cell-based
Details: ligand 1 μM
Experimental: To identify ligands for the Mrg receptors, selected MrgA genes were tested in a calcium release assay. MrgA genes, including MrgA1 and MrgA4, were cloned into a eukaryotic expression vector and transfected into human embryonic kidney (HEK) 293 cells. HEK-293 cells were obtained from the ATCC and cultured in DMEM supplemented with 10% fetal bovine serum. […]
To increase the sensitivity of the calcium release assay, in some experiments the MRGA-GFP fusion proteins were expressed in HEK 293 cells modified to express Gα15, which couples GPCRs to a signal transduction pathway leading to the release of intracellular free Ca^2+ (Offermann and Simon J Biol Chem 270: 15175-80 (1995)). This calcium release can be monitored ratiometrically using Fura-2 as a fluorescent indicator dye (Tsien et al. Cell Calcium 6: 145-57 (1985)) (FIGS. 11A-C). […]
Briefly, transfected cells were washed once in Hank's balanced salt solution with 11 mM D-glucose and 10 mM HEPES, pH 7.4 (assay buffer) and loaded with 2 μM Fura-2 AM (Molecular Probes) at room temperature for 90 min, with rotation. […] A cooled CCD camera (Photometric) was used in detecting fluorescence. […] Fura-2 fluorescence signals (340 nm, 380 nm and the 340/380 ratio) originating from GFP-positive cells were continuously monitored at 0.4- or 1-second intervals and collected using Axon Imaging Workbench 4.0 software (Axon). […]

CGRP-I: neuropeptide, calcitonin gene-related peptide
Calcium response of MRGA1-expressing cells to ligand: some level of activation; also recorded: strongest responses

Entries after “also recorded” stand apart in the source; their conditions may differ.
